Data published in patent US20060084085A1 (published 2006).

B1: Ku80 (other, human, UniProt P13010 2-732, looked up)
chain: VRSGNKAAVVLCMDVGFTMSNSIPGIESPFEQAKKVITMFVQRQVFAENKDEIALVLFGTDGTDNPLSGGDQYQNITVHRHLMLPDFDLLEDIESKIQPGSQQADFLDALIVSMDVIQHETIGKKFEKRHIEIFTDLSSRFSKSQLDIIIHSLKKCDISLQFFLPFSLGKEDGSGDRGDGPFRLGGHGPSFPLKGITEQQKEGLEIVKMVMISLEGEDGLDEIYSFSESLRKLCVFKKIERHSIHWPCRLTIGSNLSIRIAAYKSILQERVKKTWTVVDAKTLKKEDIQKETVYCLNDDDETEVLKEDIIQGFRYGSDIVPFSKVDEEQMKYKSEGKCFSVLGFCKSSQVQRRFFMGNQVLKVFAARDDEAAAVALSSLIHALDDLDMVAIVRYAYDKRANPQVGVAFPHIKHNYECLVYVQLPFMEDLRQYMFSSLKNSKKYAPTEAQLNAVDALIDSMSLAKKDEKTDTLEDLFPTTKIPNPRFQRLFQCLLHRALHPREPLPPIQQHIWNMLNPPAEVTTKSQIPLSKIKTLFPLIEAKKKDQVTAQEIFQDNHEDGPTAKKLKTEQGGAHFSVSSLAEGSVTSVGSVNPAENFRVLVKQKKASFEEASNQLINHIEQFLDTNETPYFMKSIDCIRAFREEAIKFSEEQRFNNFLKALQEKVEIKQLNHFWEIVVQDGITLITKEEASGSSVTAEEAKKFLAPKDKPSGDTAAVFEEGGDVDDLLDMI
notes: Endogenous Ku80
B2: human Ku70 (wild-type, full-length) (other)
chain: MSGWESYYKTEGDEEAEEEQEENLEASGDYKYSGRDSLIFLVDASKAMFESQSEDELTPFDMSIQCIQSVYISKIISSDRDLLAVVFYGTEKDKNSVNFKNIYVLQELDNPGAKRILELDQFKGQQGQKRFQDMMGHGSDYSLSEVLWVCANLFSDVQFKMSHKRIMLFTNEDNPHGNDSAKASRARTKAGDLRDTGIFLDLMHLKKPGGFDISLFYRDIISIAEDEDLRVHFEESSKLEDLLRKVRAKETRKRALSRLKLKLNKDIVISVGIYNLVQKALKPPPIKLYRETNEPVKTKTRTFNTSTGGLLLPSDTKRSQIYGSRQIILEKEETEELKRFDDPGLMLMGFKPLVLLKKHHYLRPSLFVYPEESLVIGSSTLFSALLIKCLEKEVAALCRYTPRRNIPPYFVALVPQEEELDDQKIQVTPPGFQLVFLPFADDKRKMPFTEKIMATPEQVGKMKAIVEKLRFTYRSDSFENPVLQQHFRNLEALALDLMEPEQAVDLTLPKVEAMNKRLGSLVDEFKELVYPPDYNPEGKVTKRKHDNEGSGSKRPKVEYSEEELKTHISKGTLGKFTVPMLKEACRAYGLKSGLKKQELLEALTKHFQD
notes: also called huKu70; native Ku70

How the values were obtained:
[1] = target: T1, human CREB-binding protein (CBP) (human, UniProt Q92793); test: co-immunoprecipitation from HeLa or 293 cells
T1 construct: also called huCBP; native CBP

human p300 = target: T2, human p300 (human, UniProt Q09472); test: co-immunoprecipitation from HeLa or 293 cells
T2 construct: also called hup300

Row | Binder | binding result [1] | binding result (human p300)
1 | B1 | no binding | –
2 | B2 | – | no binding
